Laboratory results: patent US10729672B2, “Antineoplastic combinations with mTOR inhibitor, trastuzumab and/or HKI-272” (Wyeth LLC, priority 2005, dated 2020)

Key:
Format in all cases: cell-based
[1] = test system: MDA-MB-361 [HER-2+ (non-amplified); adenocarcinoma; ATCC HTB 27] cells; assay: SRB cell survival / growth inhibition, MDA-MB-361 cells; settings: MDA-MB-361, lower levels of HER-2 without amplification
Protocol: (§1) The combination was tested in three breast cancer cell lines of differing genotypes.
(§2) Cells from each of these cell lines were incubated in the presence of a range of concentrations ([…]) for each drug. […] Compound dilutions were prepared in the same medium, at 2× final concentration, and 100 μl of the drug dilution was added to the cell-containing wells.
(§3) Serial dilutions of one compound were prepared in the presence of a fixed dose of a second compound. Alternatively, a checkerboard dilution series was employed. Cells were cultured for three days in the presence of the drugs. Untreated cells were included as controls. The percentage of surviving cells was determined using sulforhodamine B (SRB, Sigma-Aldrich, St Louis, Mo.), a protein binding dye. Cellular protein was precipitated in each well by the addition of 50 μl 50% cold trichloroacetic acid. After 1 hour, the plates were washed extensively in water and dried. SRB dye reagent (0.4% SRB in 1% acetic acid, 80 μl per well) was added and plates were kept at room temperature for ten minutes. […] Cell-associated dye was dissolved in 10 mM Tris (150 μl) and the absorbance was read at 540 nm in a microtiter plate reader. The concentration of compound that caused a fixed percentage inhibition of growth was determined by plotting cell survival (relative to untreated cells) against the compound dose.

[2] = test system: MCF-7 [HER-2−, EGFR−; adenocarcinoma; ATCC HTB22] cells; assay: SRB cell survival / growth inhibition, MCF-7 cells; settings: MCF-7, no HER-2
Protocol: as §1, §2, §3

[3] = test system: BT474 [HER-2+ (amplified); ATCC HTB-20] cells; assay: SRB cell survival / growth inhibition, BT474 cells
Protocol: as §1, §2, §3

Substance: trastuzumab: FDA-approved therapeutic monoclonal antibody for HER2 protein overexpressing metastatic breast cancer
- sensitivity of the cell line to the single agent [1]: less sensitive
- sensitivity of the cell line to the single agent [2]: resistant
- sensitivity of the cell line to the single agent [3]: highly sensitive
